Values quoted from earlier work in US20200216492A1, “USE OF C-TERMINALLY EXTENDED PEPTIDES TO DISRUPT INHIBITOR NK CELL RECEPTOR INTERACTIONS WITH MHC I” (La Jolla Institute for Allergy and Immunology, priority 2016, published 2020).

Biological target: TCR DMF5
Conditions: peptide presented by HLA-A2*02:01, read-out: TCR affinity KD; cited from earlier work

Sequence: AAGIGILTV
- Kd: 40 µM
